Read-outs that look alike come from different tables or passages of the source.
Legend:
HDAC isoforms = test: HDAC inhibition profiled over several HDAC isoforms (experimental); format: biochemical, human; settings: range of pIC50 over the profiled HDAC isoforms
HDAC4 = HDAC4 (Homo sapiens, UniProt P56524); settings: cited from earlier work
HDAC6 = HDAC6 (Homo sapiens, UniProt Q9UBN7); settings: cited from earlier work; for pIC50exp: HDAC6 experimental activity assigned; for pIC50: training set composition
HDAC7 = HDAC7 (Homo sapiens, UniProt Q8WUI4); settings: cited from earlier work
[1] = read-out: HDACs inhibitory activities IC50, training set

The chains behind the UniProt entries cited, without tags or fusion partners.
UniProt P56524, whole entry: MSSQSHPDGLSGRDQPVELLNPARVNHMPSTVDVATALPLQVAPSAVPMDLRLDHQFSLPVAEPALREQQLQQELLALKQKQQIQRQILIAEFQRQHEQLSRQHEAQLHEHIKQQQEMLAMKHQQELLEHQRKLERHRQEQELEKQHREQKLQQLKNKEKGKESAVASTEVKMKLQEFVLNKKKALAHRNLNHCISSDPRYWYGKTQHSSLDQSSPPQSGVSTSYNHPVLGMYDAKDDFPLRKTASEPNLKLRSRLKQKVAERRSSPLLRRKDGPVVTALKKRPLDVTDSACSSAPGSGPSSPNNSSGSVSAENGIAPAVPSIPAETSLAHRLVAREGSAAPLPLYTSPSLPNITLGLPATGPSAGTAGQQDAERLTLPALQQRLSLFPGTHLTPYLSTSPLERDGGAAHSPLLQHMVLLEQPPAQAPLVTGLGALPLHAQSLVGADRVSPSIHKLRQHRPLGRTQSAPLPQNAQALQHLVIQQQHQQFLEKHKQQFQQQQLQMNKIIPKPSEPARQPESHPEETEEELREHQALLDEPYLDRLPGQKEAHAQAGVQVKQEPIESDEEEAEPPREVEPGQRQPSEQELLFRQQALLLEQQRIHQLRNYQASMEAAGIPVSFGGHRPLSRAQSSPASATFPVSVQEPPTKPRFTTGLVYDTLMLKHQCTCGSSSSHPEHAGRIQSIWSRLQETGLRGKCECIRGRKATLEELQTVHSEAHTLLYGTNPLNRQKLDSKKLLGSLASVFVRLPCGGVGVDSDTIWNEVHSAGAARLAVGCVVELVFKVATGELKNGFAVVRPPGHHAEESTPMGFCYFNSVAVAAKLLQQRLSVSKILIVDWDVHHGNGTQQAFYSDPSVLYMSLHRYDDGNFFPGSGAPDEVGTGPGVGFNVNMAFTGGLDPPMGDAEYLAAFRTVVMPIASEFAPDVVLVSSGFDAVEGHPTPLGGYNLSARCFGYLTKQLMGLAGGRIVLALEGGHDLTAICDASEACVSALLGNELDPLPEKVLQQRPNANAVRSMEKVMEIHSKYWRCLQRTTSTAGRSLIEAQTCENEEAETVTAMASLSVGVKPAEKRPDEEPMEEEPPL
UniProt Q9UBN7, whole entry: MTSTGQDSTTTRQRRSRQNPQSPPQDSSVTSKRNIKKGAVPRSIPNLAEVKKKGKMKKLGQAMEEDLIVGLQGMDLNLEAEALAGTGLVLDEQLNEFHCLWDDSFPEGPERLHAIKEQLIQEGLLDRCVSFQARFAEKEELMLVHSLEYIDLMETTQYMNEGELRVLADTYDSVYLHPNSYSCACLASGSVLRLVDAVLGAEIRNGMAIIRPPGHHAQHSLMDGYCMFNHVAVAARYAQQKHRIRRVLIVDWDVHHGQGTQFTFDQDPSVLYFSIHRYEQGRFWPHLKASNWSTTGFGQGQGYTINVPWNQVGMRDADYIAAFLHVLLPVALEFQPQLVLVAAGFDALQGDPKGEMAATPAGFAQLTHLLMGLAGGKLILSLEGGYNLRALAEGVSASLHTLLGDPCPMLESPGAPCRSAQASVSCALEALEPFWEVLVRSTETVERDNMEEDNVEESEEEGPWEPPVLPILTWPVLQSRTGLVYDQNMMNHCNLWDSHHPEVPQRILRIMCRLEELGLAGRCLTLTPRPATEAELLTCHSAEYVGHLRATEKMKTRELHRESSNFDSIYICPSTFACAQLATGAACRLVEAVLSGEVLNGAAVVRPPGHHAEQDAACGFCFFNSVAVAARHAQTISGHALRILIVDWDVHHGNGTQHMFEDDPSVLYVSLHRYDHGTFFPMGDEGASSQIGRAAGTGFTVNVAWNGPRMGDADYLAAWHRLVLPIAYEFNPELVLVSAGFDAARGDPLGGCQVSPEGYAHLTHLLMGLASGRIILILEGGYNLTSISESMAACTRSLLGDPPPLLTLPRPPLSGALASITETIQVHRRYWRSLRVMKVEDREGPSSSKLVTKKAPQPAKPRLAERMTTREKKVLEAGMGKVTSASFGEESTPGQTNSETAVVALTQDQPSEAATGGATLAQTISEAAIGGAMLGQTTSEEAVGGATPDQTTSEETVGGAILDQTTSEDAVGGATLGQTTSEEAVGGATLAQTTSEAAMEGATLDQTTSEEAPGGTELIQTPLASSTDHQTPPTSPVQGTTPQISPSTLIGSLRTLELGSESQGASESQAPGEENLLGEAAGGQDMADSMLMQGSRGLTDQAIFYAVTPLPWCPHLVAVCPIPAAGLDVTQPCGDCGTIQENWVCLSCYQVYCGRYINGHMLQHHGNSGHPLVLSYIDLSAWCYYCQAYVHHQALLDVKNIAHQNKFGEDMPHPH
UniProt Q8WUI4, whole entry: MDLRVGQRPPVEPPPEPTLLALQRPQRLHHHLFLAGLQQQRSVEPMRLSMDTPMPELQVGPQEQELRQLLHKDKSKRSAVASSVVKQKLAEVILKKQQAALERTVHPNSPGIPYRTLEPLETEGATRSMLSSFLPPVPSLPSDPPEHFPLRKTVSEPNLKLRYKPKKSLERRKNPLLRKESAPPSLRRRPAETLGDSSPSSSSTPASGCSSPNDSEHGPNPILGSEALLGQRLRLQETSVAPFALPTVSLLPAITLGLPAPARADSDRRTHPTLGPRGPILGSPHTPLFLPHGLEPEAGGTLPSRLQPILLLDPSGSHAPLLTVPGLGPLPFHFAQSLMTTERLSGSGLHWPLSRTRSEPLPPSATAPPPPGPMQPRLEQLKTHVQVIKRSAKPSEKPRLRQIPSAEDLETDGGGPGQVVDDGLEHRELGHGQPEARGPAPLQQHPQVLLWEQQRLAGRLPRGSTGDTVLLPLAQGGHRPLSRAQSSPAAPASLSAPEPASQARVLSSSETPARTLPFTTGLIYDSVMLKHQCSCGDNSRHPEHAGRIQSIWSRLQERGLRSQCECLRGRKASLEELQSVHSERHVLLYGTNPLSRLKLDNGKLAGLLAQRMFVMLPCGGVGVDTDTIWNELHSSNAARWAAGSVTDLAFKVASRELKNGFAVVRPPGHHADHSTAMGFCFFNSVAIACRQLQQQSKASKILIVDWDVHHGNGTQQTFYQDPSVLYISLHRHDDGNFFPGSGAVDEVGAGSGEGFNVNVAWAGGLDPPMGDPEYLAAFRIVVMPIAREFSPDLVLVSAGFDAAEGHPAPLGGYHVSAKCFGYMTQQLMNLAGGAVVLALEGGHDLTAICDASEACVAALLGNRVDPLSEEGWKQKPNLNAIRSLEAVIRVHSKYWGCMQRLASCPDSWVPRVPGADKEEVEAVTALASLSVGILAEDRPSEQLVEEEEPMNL

For `O=C(CCCCCCC(=O)NO)NO`, the “Bioactivity range (ΔpIC50) DpIC50” value (HDAC isoforms) is listed as 1.66, the IC50 (HDAC4; [1]) is listed as 1.4 µM and the pIC50 (HDAC4; training set composition) is listed as 5.89. The pIC50exp (HDAC6; HDAC6-1 (histone catalytic domain)) was 7, the pIC50 (HDAC6; HDAC6-1) was 7.00 and the pIC50exp (HDAC6; HDAC6-2 (tubulin catalytic domain)) was 7. For the same molecule, the pIC50 (HDAC6; HDAC6-2) was 7.00, the IC50 (HDAC6; read-out: HDACs inhibitory activities IC50, HDAC6, training set) was 0.1 µM and the IC50 (HDAC7; [1]) was 1.3 µM. For the same molecule, the pIC50 (HDAC7; training set composition) was 5.89.

From patent publication US20160378912A1, “STRUCTURE-BASED MODELING AND TARGET-SELECTIVITY PREDICTION” (EPIGENETX, LLC, priority 2013, published 2016)
